For 13 molecules, IC50 results are on record in patent US11535629B2, “Dioxoloisoquinolinone derivatives and use thereof” (HANMI PHARMACEUTICAL CO., LTD., priority 2020, dated 2022).

By UniProt entry, the sequences of proteins in these tests, tags left out.
UniProt Q15910, whole entry: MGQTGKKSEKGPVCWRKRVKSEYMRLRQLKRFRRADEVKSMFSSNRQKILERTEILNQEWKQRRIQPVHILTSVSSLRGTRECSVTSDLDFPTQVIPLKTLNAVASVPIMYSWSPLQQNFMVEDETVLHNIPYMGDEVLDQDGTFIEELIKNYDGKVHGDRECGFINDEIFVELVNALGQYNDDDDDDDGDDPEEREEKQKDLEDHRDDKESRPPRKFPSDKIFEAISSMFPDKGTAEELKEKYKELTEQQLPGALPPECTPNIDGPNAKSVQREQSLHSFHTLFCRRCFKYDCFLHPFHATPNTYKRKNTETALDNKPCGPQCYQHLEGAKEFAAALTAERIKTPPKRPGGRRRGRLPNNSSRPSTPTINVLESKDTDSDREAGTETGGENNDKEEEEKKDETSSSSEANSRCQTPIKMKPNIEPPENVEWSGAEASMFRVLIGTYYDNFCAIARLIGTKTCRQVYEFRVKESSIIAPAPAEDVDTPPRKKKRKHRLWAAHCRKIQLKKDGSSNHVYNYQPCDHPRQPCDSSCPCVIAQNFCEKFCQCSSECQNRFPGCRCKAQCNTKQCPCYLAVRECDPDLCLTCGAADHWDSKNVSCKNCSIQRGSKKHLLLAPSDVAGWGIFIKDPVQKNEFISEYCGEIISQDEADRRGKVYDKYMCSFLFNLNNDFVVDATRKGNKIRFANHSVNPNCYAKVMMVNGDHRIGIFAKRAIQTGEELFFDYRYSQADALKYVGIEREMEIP

The first assay concerns the target EZH2 (Homo sapiens (Human), UniProt Q15910). Description: EZH2 methyltransferase inhibitory activity (radiometric scintillation proximity assay).
Conditions: not given
Consider `COc1cc(C)[nH]c(=O)c1CN1CCc2c(Cl)c3c(c(C)c2C1=O)OC(C)(C12CCC(N(C)C)(CC1)CC2)O3` (single isomer, unassigned) [Compound 5, 9-chloro-2-(4-(dimethylamino)bicyclo[2.2.2]octan-1-yl)-6-((4-methoxy-6-methyl-2-oxo-1,2-dihydropyridin-3-yl)methyl)-2,4-dimethyl-7,8-dihydro[1,3]dioxolo[4,5-g]isoquinolin-5(6H)-one], for which the midpoint of inhibition, the IC50, lay at 1.2 nM.

Consider `Cc1cc(C)c(CN2CCc3c(c(C)c4c(c3-c3ccco3)O[C@](C)([C@H]3CC[C@H](N(C)C)CC3)O4)C2=O)c(=O)[nH]1` [Compound 30, (R)-6-((4,6-dimethyl-2-oxo-1,2-dihydropyridin-3-yl)methyl)-2-(trans-4-(dimethylamino)cyclohexyl)-9-(furan-2-yl)-2,4-dimethyl-7,8-dihydro-[1,3]dioxolo[4,5-g]isoquinolin-5(6H)-one], for which the IC50 (in general, the point on the concentration scale where inhibition reaches its midpoint) lay in the range of 1.2 to 1.7 nM.

As for `Cc1cc(C)c(CN2CCc3c(C)c4c(c(C)c3C2=O)OC(C)(C23CCC(N(C)C)(CC2)CC3)O4)c(=O)[nH]1` (single isomer, unassigned) [Compound 23, 6-((4,6-dimethyl-2-oxo-1,2-dihydropyridin-3-yl)methyl)-2-(4-(dimethylamino)bicyclo[2.2.2]octan-1-yl)-2,4,9-trimethyl-7,8-dihydro-[1,3]dioxolo[4,5-g]isoquinolin-5(6H)-one], the IC50 was found to be 0.59 nM.

With `Cc1cc(C)c(CN2CCc3c(Cl)c4c(c(C)c3C2=O)OC(C)(C23CCC(N(C)C)(CC2)CC3)O4)c(=O)[nH]1` (single isomer, unassigned) [Compound 2, 9-chloro-6-((4,6-dimethyl-2-oxo-1,2-dihydropyridin-3-yl)methyl)-2-(4-(dimethylamino)bicyclo[2.2.2]octan-1-yl)-2,4-dimethyl-7,8-dihydro-[1,3]dioxolo[4,5-g]isoquinolin-5(6H)-one], 0.36 nM corresponded to half-maximal inhibition (IC50).

For the molecule `CSc1cc(C)[nH]c(=O)c1CN1CCc2c(Cl)c3c(c(C)c2C1=O)OC(C)(C12CCC(N(C)C)(CC1)CC2)O3` (single isomer, unassigned) [Compound 8, 9-chloro-2-(4-(dimethylamino)bicyclo[2.2.2]octan-1-yl)-2,4-dimethyl-6-((6-methyl-4-(methylthio)-2-oxo-1,2-dihydropyridin-3-yl)methyl)-7,8-dihydro[1,3]dioxolo[4,5-g]isoquinolin-5(6H)-one], the 50% inhibitory concentration (IC50) was 15 nM.

In the case of `Cc1cc(C)c(CN2CCc3c(Br)c4c(c(C)c3C2=O)OC(C)(C23CCC(N(C)C)(CC2)CC3)O4)c(=O)[nH]1` (single isomer, unassigned) [Compound 11, 9-bromo-6-((4,6-dimethyl-2-oxo-1,2-dihydropyridin-3-yl)methyl)-2-(4-(dimethylamino)bicyclo[2.2.2]octan-1-yl)-2,4-dimethyl-7,8-dihydro-[1,3]dioxolo[4,5-g]isoquinolin-5(6H)-one], 0.35 nM corresponded to half-maximal inhibition (IC50).

The assay is the same for the next values; noted with them: read-out: Enzyme inhibitory activity (IC50, nM) EZH2; 2.3 nmol/L EZH2, 90 minutes at room temperature.
Consider `Cc1cc(C)c(CN2CCc3c(c(C)c4c(c3-c3ccncc3)O[C@](C)([C@H]3CC[C@H](N(C)C)CC3)O4)C2=O)c(=O)[nH]1` [Compound 34, (R)-6-((4,6-dimethyl-2-oxo-1,2-dihydropyridin-3-yl)methyl)-2-(trans-4-(dimethylamino)cyclohexyl)-2,4-dimethyl-9-(pyridin-4-yl)-7,8-dihydro-[1,3]dioxolo[4,5-g]isoquinolin-5(6H)-one], for which the IC50 worked out at 3.4 nM.

With `Cc1cc(C)c(CN2CCc3c(c(C)c4c(c3-c3cncs3)O[C@](C)([C@H]3CC[C@H](N(C)C)CC3)O4)C2=O)c(=O)[nH]1` [Compound 52, (R)-6-((4,6-dimethyl-2-oxo-1,2-dihydropyridin-3-yl)methyl)-2-(trans-4-(dimethylamino)cyclohexyl)-2,4-dimethyl-9-(thiazol-5-yl)-7,8-dihydro-[1,3]dioxolo[4,5-g]isoquinolin-5(6H)-one], the IC50 was found to be 2.7 nM.

For `Cc1cc(C)c(CN2CCc3c(c(C)c4c(c3-c3ccsc3)O[C@](C)([C@H]3CC[C@H](N(C)C)CC3)O4)C2=O)c(=O)[nH]1` [Compound 50, (R)-6-((4,6-dimethyl-2-oxo-1,2-dihydropyridin-3-yl)methyl)-2-(trans-4-(dimethylamino)cyclohexyl)-2,4-dimethyl-9-(thiophen-3-yl)-7,8-dihydro-[1,3]dioxolo[4,5-g]isoquinolin-5(6H)-one], the IC50 amounted to 3.8 nM.

Regarding `Cc1cc(C)c(CN2CCc3c(c(C)c4c(c3-c3cccs3)O[C@](C)([C@H]3CC[C@H](N(C)C)CC3)O4)C2=O)c(=O)[nH]1` [Compound 32, (R)-6-((4,6-dimethyl-2-oxo-1,2-dihydropyridin-3-yl)methyl)-2-(trans-4-(dimethylamino)cyclohexyl)-2,4-dimethyl-9-(thiophen-2-yl)-7,8-dihydro-[1,3]dioxolo[4,5-g]isoquinolin-5(6H)-one], the IC50 was determined as 2.5 nM.

Regarding `Cc1cc(C)c(CN2CCc3c(c(C)c4c(c3-c3ccc(C)o3)O[C@](C)([C@H]3CC[C@H](N(C)C)CC3)O4)C2=O)c(=O)[nH]1` [Compound 40, (R)-6-((4,6-dimethyl-2-oxo-1,2-dihydropyridin-3-yl)methyl)-2-(trans-4-(dimethylamino)cyclohexyl)-2,4-dimethyl-9-(5-methylfuran-2-yl)-7,8-dihydro-[1,3]dioxolo[4,5-g]isoquinolin-5(6H)-one], the IC50 stood at 2.2 nM.

As for `Cc1cc(C)c(CN2CCc3c(c(C)c4c(c3-c3cccnc3)O[C@](C)([C@H]3CC[C@H](N(C)C)CC3)O4)C2=O)c(=O)[nH]1` [Compound 44, (R)-6-((4,6-dimethyl-2-oxo-1,2-dihydropyridin-3-yl)methyl)-2-(trans-4-(dimethylamino)cyclohexyl)-2,4-dimethyl-9-(pyridin-3-yl)-7,8-dihydro-[1,3]dioxolo[4,5-g]isoquinolin-5(6H)-one], the IC50 is 3.3 nM.

For `Cc1cc(C)c(CN2CCc3c(c(C)c4c(c3-c3cccn3C)O[C@](C)([C@H]3CC[C@H](N(C)C)CC3)O4)C2=O)c(=O)[nH]1` [Compound 48, (R)-6-((4,6-dimethyl-2-oxo-1,2-dihydropyridin-3-yl)methyl)-2-(trans-4-(dimethylamino)cyclohexyl)-2,4-dimethyl-9-(1-methyl-1H-pyrrol-2-yl)-7,8-dihydro-[1,3]dioxolo[4,5-g]isoquinolin-5(6H)-one], the IC50 turned out to be 3.3 nM.
